## AlphaSeq binding of Ab-91 heavy chain variants to a spike HR2 peptide

Values reported by Engelhart et al. 2022, doi:10.1038/s41597-022-01779-4 (FLAb copy).

The target is the same throughout: PDVDLGDISGINAS, from the HR2 region of SARS-CoV-2 spike.

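The library (AAYL51) carries one to three amino acid substitutions per variant, with no insertions or deletions. The assay is AlphaSeq: two haploid yeast populations carry antibody and antigen on their surface. Binding brings cells together so that they mate, and sequencing counts the barcode pairs among the diploids. Read counts were normalised to the haploid input and turned into Kd by a linear fit to BCL2-family pairs of known affinity, for each replicate. The assay was run in three technical replicates.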

Each scFv is VL, the linker GGGGSGGGGSGGGGS, VH, as in the parent Ab-91, and differs from it in the CDRs of the heavy chain only.
VL: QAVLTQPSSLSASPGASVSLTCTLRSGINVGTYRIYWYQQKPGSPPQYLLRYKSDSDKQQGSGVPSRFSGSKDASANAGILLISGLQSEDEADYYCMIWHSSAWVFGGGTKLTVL
VH: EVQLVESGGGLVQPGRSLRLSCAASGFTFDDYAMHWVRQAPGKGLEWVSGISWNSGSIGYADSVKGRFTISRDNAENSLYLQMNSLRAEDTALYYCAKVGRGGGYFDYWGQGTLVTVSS

Sequences are complete VH domains. Affinities are written as log10 Kd with Kd in nM; a lower number is a better binder. The mean shown is taken over the replicates in which the pair was detected. An entry "nd" has no value in the source: the pair was not observed among the diploids in that replicate. This suggests poor binding but is not conclusive. Empty control strains, which show no peptide, gave a signal in 21% of pairings with library AAYL51; the median was 4.54 and 95% of these signals were weaker than 3.26. No background was subtracted. Also given: how often the same scFv was detected with the empty control strains, with their mean in brackets.

VH	log10 Kd (nM) by replicate	mean log10 Kd (nM)	control signals
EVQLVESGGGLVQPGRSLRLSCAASGFTFDDYLMHWVRQAPGKGLEWVSGISWNSGSICYADSVKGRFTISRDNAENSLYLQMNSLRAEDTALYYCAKVGRAGGYFDYWGQGTLVTVSS	4.67 / nd / 4.75	4.71	1/9 (5.00)
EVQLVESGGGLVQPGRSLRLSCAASGFTWDDYAMHWVRQAPGKGLEWVSGISWNSGSISYADSVKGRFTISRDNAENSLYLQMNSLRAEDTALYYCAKVGRGGGYFSYWGQGTLVTVSS	nd / nd / nd	nd	3/9 (3.90)
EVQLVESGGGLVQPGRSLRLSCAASGFTFDDYLMHWVRQAPGKGLEWVSGISWNSGSIGYAVSVKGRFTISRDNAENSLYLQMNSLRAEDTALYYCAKVGRGGHYFDYWGQGTLVTVSS	nd / nd / nd	nd	0/9
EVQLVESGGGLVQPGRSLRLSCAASGFTFDDYAMHWVRQAPGKGLEWVSGISWQSGSINYADVVKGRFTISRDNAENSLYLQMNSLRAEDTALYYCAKVGRGGGYFDYWGQGTLVTVSS	nd / nd / nd	nd	0/9
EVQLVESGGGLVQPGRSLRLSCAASGFTFDDYNMHWVRQAPGKGLEWVSGYSWNSGSIGYADSVKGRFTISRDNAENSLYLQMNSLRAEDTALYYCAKVGRGGGYFDVWGQGTLVTVSS	5.43 / 4.98 / 4.93	5.11	7/9 (4.90)
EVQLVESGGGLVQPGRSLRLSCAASCFTFDDYAMHWVRQAPGKGLEWVSGIDWNSGSIGYADSVKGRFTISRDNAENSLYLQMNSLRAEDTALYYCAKVGRGGGTFDYWGQGTLVTVSS	5.32 / 6.79 / 5.64	5.92	8/9 (5.37)
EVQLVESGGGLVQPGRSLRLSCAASGFTFDDYAMHWVRQAPGKGLEWVSGISWKSGSIGYADSVAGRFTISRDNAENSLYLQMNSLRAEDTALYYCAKVGRGGGYFDTWGQGTLVTVSS	2.39 / 2.99 / 3.95	3.11	3/9 (4.16)
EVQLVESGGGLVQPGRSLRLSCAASGFTSDDYAMHWVRQAPGKGLEWVSGISWNSGSIGLADSVKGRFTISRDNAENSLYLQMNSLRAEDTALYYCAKVGRGGGYFDTWGQGTLVTVSS	nd / nd / nd	nd	0/9
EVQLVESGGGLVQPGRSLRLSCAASGFKFDDYAMKWVRQAPGKGLEWVSGISWNSGSIGYADSGKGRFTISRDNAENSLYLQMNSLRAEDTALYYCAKVGRGGGYFDYWGQGTLVTVSS	nd / nd / nd	nd	0/9
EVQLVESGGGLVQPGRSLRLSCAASGFTFYDYAMHWVRQAPGKGLEWVSGISWNSGSIGYAQSVKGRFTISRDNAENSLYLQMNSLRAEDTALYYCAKVGHGGGYFDYWGQGTLVTVSS	1.50 / 1.68 / 1.23	1.47	1/9 (5.73)
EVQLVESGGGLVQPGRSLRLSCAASGFTFDDYAMHWVRQAPGKGLEWVSGISWNKGSIVYADSVKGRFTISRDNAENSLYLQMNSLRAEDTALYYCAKVGRGGFYFDYWGQGTLVTVSS	nd / nd / nd	nd	1/9 (3.11)
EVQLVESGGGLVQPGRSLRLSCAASGFTFDDYAMHWVRQAPGKGLEWVSTISWNSGSIGYADSVIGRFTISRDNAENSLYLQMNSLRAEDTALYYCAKVGRGGGYFDFWGQGTLVTVSS	nd / nd / nd	nd	0/9
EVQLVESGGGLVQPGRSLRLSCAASLFTFDDYAMHWVRQAPGKGLEWVSGISWNSGSIGYDDSVKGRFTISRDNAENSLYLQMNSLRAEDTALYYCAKVGRGGGYFDWWGQGTLVTVSS	4.38 / nd / 4.05	4.21	6/9 (4.94)
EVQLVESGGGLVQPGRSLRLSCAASGFTFDDYAMHWVRQAPGKGLEWVSPISWNSGSIGYAPSVKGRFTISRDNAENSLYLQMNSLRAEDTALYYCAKVGRGGGYYDYWGQGTLVTVSS	4.36 / nd / 4.40	4.38	5/9 (4.64)
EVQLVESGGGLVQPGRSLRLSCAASGFTFDDYAMHWVRQAPGKGLEWVSGDSHNSSSIGYADSVKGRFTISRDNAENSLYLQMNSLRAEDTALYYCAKVGRGGGYFDYWGQGTLVTVSS	nd / nd / nd	nd	1/9 (4.28)

Picked from the list: the 2 lowest averages where every replicate gave a value.

VH	log10 Kd (nM) by replicate	mean log10 Kd (nM)	control signals
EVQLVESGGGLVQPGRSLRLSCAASGFTFYDYAMHWVRQAPGKGLEWVSGISWNSGSIGYAQSVKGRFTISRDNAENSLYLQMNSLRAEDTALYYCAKVGHGGGYFDYWGQGTLVTVSS	1.50 / 1.68 / 1.23	1.47	1/9 (5.73)
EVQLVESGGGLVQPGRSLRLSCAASGFTFDDYAMHWVRQAPGKGLEWVSGISWKSGSIGYADSVAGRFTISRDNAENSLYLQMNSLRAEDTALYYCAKVGRGGGYFDTWGQGTLVTVSS	2.39 / 2.99 / 3.95	3.11	3/9 (4.16)